Assay results: paper PMC4979570 (Journal of medicinal chemistry, 2016)

Sequences of proteins named here, by UniProt entry; tags and fusion partners are left off. Residues count along the entry.
UniProt P41148, 22-804: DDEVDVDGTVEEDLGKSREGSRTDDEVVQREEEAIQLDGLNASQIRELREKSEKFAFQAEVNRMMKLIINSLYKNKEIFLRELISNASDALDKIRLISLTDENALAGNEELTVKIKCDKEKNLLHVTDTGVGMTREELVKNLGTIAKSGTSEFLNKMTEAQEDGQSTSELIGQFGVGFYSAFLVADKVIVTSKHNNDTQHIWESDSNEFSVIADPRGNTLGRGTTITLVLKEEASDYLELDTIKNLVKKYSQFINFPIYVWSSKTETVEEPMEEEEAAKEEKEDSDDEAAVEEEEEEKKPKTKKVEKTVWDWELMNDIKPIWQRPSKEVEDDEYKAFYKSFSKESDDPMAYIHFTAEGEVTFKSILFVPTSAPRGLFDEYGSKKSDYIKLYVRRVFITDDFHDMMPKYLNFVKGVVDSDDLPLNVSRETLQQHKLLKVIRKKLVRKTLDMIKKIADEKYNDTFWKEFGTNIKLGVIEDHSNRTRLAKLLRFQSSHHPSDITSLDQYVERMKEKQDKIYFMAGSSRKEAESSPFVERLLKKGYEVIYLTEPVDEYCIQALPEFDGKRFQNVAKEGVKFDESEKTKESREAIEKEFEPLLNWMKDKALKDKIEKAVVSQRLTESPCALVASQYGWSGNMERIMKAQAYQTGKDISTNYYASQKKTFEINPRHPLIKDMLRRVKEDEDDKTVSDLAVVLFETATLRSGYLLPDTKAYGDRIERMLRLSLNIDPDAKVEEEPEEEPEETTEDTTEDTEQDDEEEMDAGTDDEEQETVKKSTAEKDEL

Biological target: Grp94 (Canis lupus familiaris, UniProt P41148)
Format: binding
Details: Grp94 over Hsp90α, from apparent Kd

Structure (SMILES) | Fold Selective for Grp94 [fold]
COC(=O)c1c(O)cc(O)c(Cl)c1CCc1nccn1Cc1ccccc1C [compound 36, Methyl 3-Chloro-4,6-dihydroxy-2-(2-(1-(2-methylbenzyl)-1H-imidazol-2-yl)ethyl)benzoate] | 23
COC(=O)c1c(O)cc(O)c(Cl)c1CCc1nccn1Cc1ccccc1Br [compound 35, Methyl 2-(2-(1-(2-Bromobenzyl)-1H-imidazol-2-yl)ethyl)-3-chloro-4,6-dihydroxybenzoate] | 13
COC(=O)c1c(O)cc(O)c(Cl)c1CCc1nccn1Cc1ccccc1OC(C)C [compound 41, Methyl 3-Chloro-4,6-dihydroxy-2-(2-(1-(2-isopropoxybenzyl)-1H-imidazol-2-yl)ethyl)benzoate] | 3
C#Cc1ccc(Cn2ccnc2CCc2c(Cl)c(O)cc(O)c2C(=O)OC)cc1 [compound 18, Methyl 3-Chloro-2-(2-(1-(4-ethynylbenzyl)-1H-imidazol-2-yl)-ethyl)-4,6-dihydroxybenzoate] | 11
COC(=O)c1c(O)cc(O)c(Cl)c1CCc1nccn1Cc1ccc(OC)cc1 [compound 21, Methyl 3-Chloro-4,6-dihydroxy-2-(2-(1-(4-methoxybenzyl)-1H-imidazol-2-yl)ethyl)benzoate] | >22
COC(=O)c1c(O)cc(O)c(Cl)c1CCc1nccn1Cc1ccc(C)cc1 [compound 14, Methyl 3-Chloro-4,6-dihydroxy-2-(2-(1-(4-methylbenzyl)-1H-imidazol-2-yl)ethyl)benzoate] | 34
COC(=O)c1c(O)cc(O)c(Cl)c1CCc1nccn1Cc1ccccc1OC [compound 38, Methyl 3-Chloro-4,6-dihydroxy-2-(2-(1-(2-methoxybenzyl)-1H-imidazol-2-yl)ethyl)benzoate] | > 40
COC(=O)c1c(O)cc(O)c(Cl)c1CCc1nccn1Cc1cccc(F)c1 [compound 26, Methyl 3-Chloro-2-(2-(1-(3-fluorobenzyl)-1H-imidazol-2-yl)ethyl)-4,6-dihydroxybenzoate] | 6
COC(=O)c1c(O)cc(O)c(Cl)c1CCc1nccn1Cc1ccc(C#N)cc1 [compound 17, Methyl 3-Chloro-2-(2-(1-(4-cyanobenzyl)-1H-imidazol-2-yl)-ethyl)-4,6-dihydroxybenzoate] | 4
CCc1ccccc1Cn1ccnc1CCc1c(Cl)c(O)cc(O)c1C(=O)OC [compound 39, Methyl 3-Chloro-2-(2-(1-(2-ethylbenzyl)-1H-imidazol-2-yl)ethyl)-4,6-dihydroxybenzoate] | > 40
COC(=O)c1c(O)cc(O)c(Cl)c1CCc1nccn1Cc1ccccc1C(F)(F)F [compound 43, Methyl 3-Chloro-4,6-dihydroxy-2-(2-(1-(2-(trifluoromethyl)-benzyl)-1H-imidazol-2-yl)ethyl)benzoate] | 13

Same assay, conditions: relative to BnIm

Structure (SMILES) | increase in affinity for Grp94 compared to BnIm
CCOc1ccccc1Cn1ccnc1CCc1c(Cl)c(O)cc(O)c1C(=O)OC [compound 40, Methyl 3-Chloro-2-(2-(1-(2-ethoxybenzyl)-1H-imidazol-2-yl)-ethyl)-4,6-dihydroxybenzoate] | ~ 6 fold
